# Antibody variant affinities, Ab-14 light chain, assay B

The measurements come from Li et al. 2023 (doi:10.1038/s41467-023-39022-2) through the FLAb antibody collection.

Target: peptide PDVDLGDISGINAS, taken from heptad repeat 2 (HR2) of SARS-CoV-2 spike.

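The parent was found by panning a naive human phage display library on the peptide. The variants were designed computationally from a first round of random CDR variants and then made and measured. Their group label is 14L_GP_Gen (GP: Gaussian process model; Gen: genetic algorithm; a sequence that several methods proposed may carry one label only). In AlphaSeq, yeast of one mating type display the scFv and yeast of the other type display the target. Pairs that bind mate more often; barcode pairs of the diploids are counted by sequencing. Each replicate has its own calibration line, from reference interactions of the BCL2 family. The assay was run in six technical replicates.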

Parent scFv Ab-14: VH joined to VL by a 15-residue (Gly4Ser)3 linker. Changes lie in the light chain CDRs alone.
VH: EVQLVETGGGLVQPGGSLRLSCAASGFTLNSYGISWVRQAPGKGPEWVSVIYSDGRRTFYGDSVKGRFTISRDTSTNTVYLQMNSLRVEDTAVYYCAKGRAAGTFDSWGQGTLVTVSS
VL: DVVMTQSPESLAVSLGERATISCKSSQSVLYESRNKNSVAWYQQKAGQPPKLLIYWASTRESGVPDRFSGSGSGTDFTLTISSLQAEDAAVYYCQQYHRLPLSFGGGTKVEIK

Each variant is given by its three light chain CDRs, as the data file delimits them; those of the parent are KSSQSVLYESRNKNSVA, WASTRES, QQYHRLPLS. Affinities are written as log10 Kd with Kd in nM; a lower number is a better binder. "nd" means that the variant was in the library but no mating with the target was seen in that replicate; the authors take this as a sign of poor binding, and no number exists. Three control strains display no target. For all light chain designs, 4% of the pairings with them gave a signal, with a median of 2.64 and one signal in twenty below 1.59, so weak values seen in few replicates may be background. For each scFv, signals with the empty controls are counted beside the result, with their mean in brackets.

CDR-L1,CDR-L2,CDR-L3,"log10 Kd, replicates",empty controls
KLQQSDLYESRNKNSVA,GASTRES,QQYHRLPLS,-0.18 -0.40 -0.36 -0.45 -0.39 -0.31,3/18 (2.78)
KFSQSVLYESRDKNSVA,DASTRES,QQYHRLPLS,-0.23 -0.26 -0.12 -0.13 -0.34 -0.11,1/18 (1.41)
KLEQSVEYESRNKNSVA,NASTRES,QQYHRLPLS,0.18 -0.10 -0.23 -0.05 -0.22 -0.02,0/18
KLSQSDLYESRNKNSVA,HASTRMS,QQYHRLPLS,0.28 0.10 0.07 -0.02 0.12 0.23,2/18 (4.02)
KLSQSFLYEDRNKNSVA,NASTRES,QQYHRLPLS,-0.17 -0.25 -0.32 -0.32 -0.47 -0.27,2/18 (4.72)
KLSQSQLYESRNKNSVA,NASQRMS,QQYHRLPLS,-0.21 -0.28 -0.45 -0.34 -0.51 -0.33,1/18 (2.18)
KLSQSMLYESRMKNSVA,NASTRLS,QQYHRLPLS,0.77 0.12 0.19 -0.03 0.02 0.35,1/18 (2.80)
KLRQSMLYESRNKNSVA,NASQRES,QQYHRLPLS,-0.14 -0.28 -0.31 -0.34 -0.41 -0.11,2/18 (2.93)
KVPQSNLYESRNKNSVA,NASTRES,QQYHRLPLS,-0.04 -0.25 -0.26 -0.22 -0.20 -0.17,1/18 (3.16)
KLSQSCLYESRNKNSVA,NASTRES,QQYHRLPLS,0.40 0.16 0.10 0.05 0.07 0.44,4/18 (3.34)
KLEQSHLYESRNKNSVA,NASQRES,QQYHRLPLS,-0.19 -0.60 -0.41 -0.66 -0.17 -0.48,1/18 (2.48)
KLSQSDLYESRNKNNVA,HASQRES,QQYHRLPLS,-0.42 -0.39 -0.50 -0.54 -0.59 -0.16,0/18
KQSQSELYESRNKNSVA,NASQRES,QQYHRLPLS,0.04 -0.06 -0.14 -0.07 0.14 -0.05,0/18
KLSQMVEYESRNKNSVA,NASTRES,QQYHRLPLS,0.54 0.24 -0.46 -0.24 0.38 0.90,1/18 (1.26)
KLSQSVDYESRNKNSVA,GASTRES,QQYHRLPLS,0.04 -0.12 -0.18 -0.18 -0.13 0.01,2/18 (3.23)
KLLQSVLYESRNKNSVA,NASQRES,QQYHRLPLS,0.42 -0.06 0.00 0.29 0.31 0.42,0/18
KLPQSVLYESRNKNSVA,EASTREV,QQYHRLPLS,-0.37 -0.42 -0.39 -0.57 -0.36 -0.33,1/18 (2.56)
KVQQSVLYESRNKNSVA,NGSTRES,QQYHRLPLS,0.35 0.07 0.27 0.17 0.00 0.01,0/18
KLSQSDLYESRNKNNVA,AASTRES,QQYHRLPLS,-0.40 -0.77 -0.66 -0.65 -0.58 -0.58,0/18
KLSQSYLYESRNKNSVA,NASTRMS,QQYHRLPLS,0.62 0.48 0.44 0.47 0.41 0.78,1/18 (3.96)
KLSQSVLYESRVKNSVA,NASLRES,QQYHRLPLS,0.53 0.30 0.45 0.35 0.96 0.22,0/18
KLSQSFLMESRNKNSVA,EASTRES,QQYHRLPLS,0.03 -0.12 -0.09 -0.04 -0.21 -0.04,1/18 (2.71)
HLSQSELYESRNKNSVA,NASTRCS,QQYHRLPLS,0.23 0.84 1.24 1.27 0.66 0.75,0/18
KVSQSWLYESRNKQSVA,NASTRES,QQYHRLPLS,-0.05 -0.09 -0.12 -0.32 -0.03 -0.14,0/18
KLSQSTLYESRNKNSVA,HASTRLS,QQYHRLPLS,0.13 0.22 0.10 0.05 0.22 0.05,1/18 (3.12)
KLSQSWLYESRQKNSVA,NASTRES,QQYHRLPLS,0.29 0.06 -0.30 -0.05 -0.04 0.25,1/18 (1.73)
KLSYSELYESRNKNSVA,EASTRES,QQYHRLPLS,0.33 -0.04 0.09 -0.18 -0.07 0.09,1/18 (3.59)
KLQQSELYESRNKNSVA,SASTRES,QQYHRLPLS,1.30 0.68 0.85 0.73 0.73 0.73,0/18
KVQQSVPYESRNKNSVA,HASTRES,QQYHRLPLS,-0.05 -0.14 -0.03 0.27 -0.09 -0.09,0/18
KLSQSVLYGSRNKNSVA,EASQRES,QQYHRLPLS,-0.19 -0.28 0.04 -0.20 -0.13 -0.15,0/18
KMPQSNLYESRNKNSVA,NASTRES,QQYHRLPLS,0.96 0.85 0.71 0.76 1.30 1.23,3/18 (2.58)
KLSQQVLYESRNKNSVA,NASTRES,QQYHRLPLS,-0.06 -0.16 -0.12 -0.02 -0.27 0.08,1/18 (2.54)
KLSQSVMYESRNKNSVA,NASTRMS,QQYHRLPLS,-0.09 -0.07 -0.34 -0.44 -0.24 -0.12,0/18
KLSQSWLYEDRNKNSVA,NASQRES,QQYHRLPLS,-0.07 -0.11 -0.18 0.00 -0.23 0.06,2/18 (1.86)
KVPQSMLYESRNKNSVA,NASTRES,QQYHRLPLS,nd 2.24 nd 1.82 2.20 1.94,0/18
KLSQLGLYESRNKNSVA,NASTRES,QQYHRLPLS,-0.32 -0.19 -0.47 -0.52 -0.48 -0.28,0/18
KLSQSWEYESRNKNSVA,NASTREQ,QQYHRLPLS,0.25 0.19 0.29 0.00 0.12 0.23,5/18 (3.19)
KLQQSVEYESRNKNSVA,NASTREQ,QQYHRLPLS,0.13 0.23 0.05 -0.17 -0.08 0.26,1/18 (3.39)
FLSQSVLYESRNKNSVA,NASTREQ,QQYHRLPLS,-0.07 -0.13 -0.21 -0.34 -0.27 0.05,1/18 (2.66)
KLSQSVLYESRNKNSVA,NGSQRES,QQYHRLPLS,-0.31 -0.32 -0.52 -0.62 -0.41 -0.24,1/18 (2.55)
KLQQSELYESRNKNSVA,NASTREQ,QQYHRLPLS,-0.40 -1.05 -0.32 -0.67 -0.37 -0.47,0/18
KVSGSQLYESRNKNSVA,NASTRES,QQYHRLPLS,-0.40 -0.34 -0.49 -0.55 -0.68 -0.33,1/18 (2.12)
KFQQSVLYESRNKNSVA,NGSTRES,QQYHRLPLS,-0.25 -0.31 -0.38 -0.20 -0.09 -0.10,0/18
KLSGSYLYESRNKNSVA,EASTRES,QQYHRLPLS,0.28 0.14 0.01 0.08 -0.13 0.46,0/18
HLSQSQLYESRNKNSVA,NASTRES,QQYHRLPLS,0.30 0.27 0.51 0.14 0.42 0.70,0/18
KLEQSVLYESRNKNSVA,NASTRSS,QQYHRLPLS,-0.23 -0.32 -0.44 -0.47 -0.42 -0.15,1/18 (3.18)
KLSESVLYESRNKNSVA,EASTRES,QQYHRLPLS,-0.30 -0.37 -0.49 -0.54 -0.47 -0.37,3/18 (3.12)

Excerpt, the final 8 entries:

| CDR-L1 | CDR-L2 | CDR-L3 | log10 Kd, replicates | empty controls |
|---|---|---|---|---|
| KLSQSVLYESRNKNSVA | NGSQRES | QQYHRLPLS | -0.31 -0.32 -0.52 -0.62 -0.41 -0.24 | 1/18 (2.55) |
| KLQQSELYESRNKNSVA | NASTREQ | QQYHRLPLS | -0.40 -1.05 -0.32 -0.67 -0.37 -0.47 | 0/18 |
| KVSGSQLYESRNKNSVA | NASTRES | QQYHRLPLS | -0.40 -0.34 -0.49 -0.55 -0.68 -0.33 | 1/18 (2.12) |
| KFQQSVLYESRNKNSVA | NGSTRES | QQYHRLPLS | -0.25 -0.31 -0.38 -0.20 -0.09 -0.10 | 0/18 |
| KLSGSYLYESRNKNSVA | EASTRES | QQYHRLPLS | 0.28 0.14 0.01 0.08 -0.13 0.46 | 0/18 |
| HLSQSQLYESRNKNSVA | NASTRES | QQYHRLPLS | 0.30 0.27 0.51 0.14 0.42 0.70 | 0/18 |
| KLEQSVLYESRNKNSVA | NASTRSS | QQYHRLPLS | -0.23 -0.32 -0.44 -0.47 -0.42 -0.15 | 1/18 (3.18) |
| KLSESVLYESRNKNSVA | EASTRES | QQYHRLPLS | -0.30 -0.37 -0.49 -0.54 -0.47 -0.37 | 3/18 (3.12) |

A sequence measured in both rounds can read differently, since the two assays cover different ranges. The parent sequence was in this pool as ten entries: three were never detected, three once, and four in most replicates, with averages from 0.34 to 2.37. In the paper, a design with two or fewer of six values counts as a poor binder.